Structures are written as SMILES. Structures can show the parent of a compound that is named as a salt. Where two headings read alike, the source gives them in different places.

The values that follow come from patent publication US9018214B2, “Bicyclic heterocycle compounds and their uses in therapy” (Astex Therapeutics Limited, priority 2011, dated 2015).

Assay [1] deals with BIR3 domain of human cIAP-1 (residues 267-363) (Homo sapiens (Human), UniProt Q13490). In words: cIAP-1 in vitro competitive displacement binding assay (fluorescence polarization; Probe A AVPIK(5&6FAM)-amide or Probe B AbuRPFK(5&6FAM)-amide).
Assay [2] relates to EVSA-T (human breast carcinoma). The assay can be described thus: Anti-proliferative activity, Alamar Blue assay, EVSA-T. It counts as cell-based. The note with it: 72 h, read-out: EVSA-T prolif (EC50). Background: The colour change of resazurin is a common sign of viable cells or microbes.

The term IC50 denotes the midpoint of a concentration-inhibition curve. Turning to `C[C@@H]1CN(CC(=O)N2CC(C)(C)c3cnc(Cc4ccc(F)cc4F)cc32)[C@@H](CN2CCCC2)CN1` [Example 220, 1-{6-[(2,4-Difluorophenyl)methyl]-3,3-dimethyl-1H,2H,3H-pyrrolo[3,2-c]pyridin-1-yl}-2-[(2R,5R)-5-methyl-2-(pyrrolidin-1-ylmethyl)piperazin-1-yl]ethan-1-one dihydrochloride], the IC50 in assay [1] is less than 1000 nM.
The same measure, in the same setting: the value for `CC(C)CC(F)(F)c1cnc2c(c1)N(C(=O)CN1C[C@@H](C)NC[C@@H]1CN1CCOCC1)CC2(C)C` [Example 235, 1-[6-(1,1-Difluoro-3-methylbutyl)-3,3-dimethyl-1H,2H,3H-pyrrolo[3,2-b]pyridin-1-yl]-2-[(2R,5R)-5-methyl-2-(morpholin-4-ylmethyl)piperazin-1-yl]ethan-1-one] was less than 1000 nM; that for `COC[C@H]1CN[C@H](C)CN1CC(=O)N1CC(C)(C)c2cnc(C(OC)c3ccccc3)cc21` (stereo partly drawn) [Example 132, 1-{6-[Methoxy(phenyl)methyl]-3,3-dimethyl-1H,2H,3H-pyrrolo[3,2-c]pyridin-1-yl}-2-[(2R,5R)-2-(methoxymethyl)-5-methylpiperazin-1-yl]ethan-1-one dihydrochloride] was less than 1000 nM.
As usually defined, the EC50 is the concentration needed to bring the measured effect to its halfway point. As to `C[C@@H]1CN(CC(=O)N2CC(C)(C)c3ncc(C(C)(F)F)cc32)[C@@H](CN2CCCC2=O)CN1` [Example 188, 1-{[(2R,5R)-1-{2-[6-(1,1-Difluoroethyl)-3,3-dimethyl-1H,2H,3H-pyrrolo[3,2-b]pyridin-1-yl]-2-oxoethyl}-5-methylpiperazin-2-yl]methyl}pyrrolidin-2-one dihydrochloride], in assay [2], the EC50 was 630 nM.
Take `COC[C@H]1CN[C@H](C)CN1CC(=O)N1C[C@](C)(c2ccccc2)c2ccc(C#N)cc21` [Example 140, (3R)-1-{2-[(2R,5R)-2-(Methoxymethyl)-5-methylpiperazin-1-yl]acetyl}-3-methyl-3-phenyl-2,3-dihydro-1H-indole-6-carbonitrile]: in assay [1] (Probe B AbuRPFK(5&6FAM)-amide, read-out: IC50 or PI cIAP1: IC50), the half-maximal inhibitory concentration (IC50) was found to be 220 nM.
